Reference: ChEMBL document CHEMBL4616727, “Characterization of Conformationally Constrained Benzanilide Scaffolds for Potent and Selective HDAC8 Targeting” (J Med Chem, 2020)

The chains behind the UniProt entries cited, without tags or fusion partners. Where a name states a change or a piece, a line headed by the entry shows the natural chain unless it says otherwise.
UniProt P56524: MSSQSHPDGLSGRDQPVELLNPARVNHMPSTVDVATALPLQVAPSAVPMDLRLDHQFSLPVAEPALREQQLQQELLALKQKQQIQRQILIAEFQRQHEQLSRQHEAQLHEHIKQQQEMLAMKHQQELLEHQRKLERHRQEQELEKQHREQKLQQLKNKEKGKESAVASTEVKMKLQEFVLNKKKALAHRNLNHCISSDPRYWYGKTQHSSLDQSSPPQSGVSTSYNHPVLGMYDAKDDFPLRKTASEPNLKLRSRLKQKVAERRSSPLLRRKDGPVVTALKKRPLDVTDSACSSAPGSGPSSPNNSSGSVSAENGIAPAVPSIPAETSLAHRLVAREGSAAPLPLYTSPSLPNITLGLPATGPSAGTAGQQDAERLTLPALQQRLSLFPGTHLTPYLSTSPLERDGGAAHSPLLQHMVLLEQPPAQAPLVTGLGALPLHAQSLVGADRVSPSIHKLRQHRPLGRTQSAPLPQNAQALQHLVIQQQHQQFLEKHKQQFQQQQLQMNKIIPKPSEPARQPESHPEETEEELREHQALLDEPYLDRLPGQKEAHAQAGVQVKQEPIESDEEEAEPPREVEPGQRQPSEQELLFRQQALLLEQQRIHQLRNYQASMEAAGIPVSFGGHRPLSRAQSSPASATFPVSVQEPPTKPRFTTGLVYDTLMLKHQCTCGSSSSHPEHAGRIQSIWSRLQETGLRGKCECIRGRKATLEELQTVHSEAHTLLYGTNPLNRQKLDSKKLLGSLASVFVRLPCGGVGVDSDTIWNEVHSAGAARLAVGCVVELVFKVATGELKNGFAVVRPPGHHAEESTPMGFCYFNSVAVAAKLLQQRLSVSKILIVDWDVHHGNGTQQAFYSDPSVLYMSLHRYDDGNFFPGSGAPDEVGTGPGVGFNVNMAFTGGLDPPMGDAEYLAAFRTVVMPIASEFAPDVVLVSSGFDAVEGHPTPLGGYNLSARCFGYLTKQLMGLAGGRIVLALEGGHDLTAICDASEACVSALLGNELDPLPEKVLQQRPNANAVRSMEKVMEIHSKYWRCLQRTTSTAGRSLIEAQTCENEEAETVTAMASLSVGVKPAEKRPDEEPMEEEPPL

Target: Histone deacetylase 4 (Homo sapiens, UniProt P56524)
Assay: Inhibition of C-terminal GST-tagged human HDAC4 (101 to 1084 resides) expressed in baculovirus expression system using FAM-RHKK(TF-Ac)-NH2 substrate incubated for 1.5 hrs by EMSA method

## COc1ccc(Cn2ccc3ccc(C(=O)NO)cc32)cc1
  IC50: > 10 µM
